Laboratory results from BindingDB's records for doi:10.1111/j.1600-0773.1998.tb01469.x (Case Western Reserve University, 1998).

By UniProt entry, the sequences of proteins in these tests, tags left out. Chains listed by the source or under a name are the forms on record and can include a tag or linker.
UniProt P08485, as listed by the source: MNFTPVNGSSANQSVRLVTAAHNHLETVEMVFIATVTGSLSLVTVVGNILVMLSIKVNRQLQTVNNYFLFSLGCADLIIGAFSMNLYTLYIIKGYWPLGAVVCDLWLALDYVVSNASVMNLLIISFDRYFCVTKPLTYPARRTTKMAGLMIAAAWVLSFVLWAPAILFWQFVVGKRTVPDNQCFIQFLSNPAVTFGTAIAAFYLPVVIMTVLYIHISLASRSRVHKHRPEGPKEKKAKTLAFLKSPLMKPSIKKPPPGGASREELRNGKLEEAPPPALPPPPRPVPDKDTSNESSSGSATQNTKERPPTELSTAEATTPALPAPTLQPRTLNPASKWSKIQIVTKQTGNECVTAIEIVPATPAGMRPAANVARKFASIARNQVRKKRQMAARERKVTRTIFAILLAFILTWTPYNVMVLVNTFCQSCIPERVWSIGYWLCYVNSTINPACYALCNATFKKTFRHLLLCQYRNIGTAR

Target: Muscarinic acetylcholine receptor M4 (Rattus norvegicus, UniProt P08485)

With `CN1C2CC(OC(=O)C(CO)c3ccccc3)CC1C1OC12` (stereo unspecified) [3-hydroxy-2-phenyl-propionic acid 9-methyl-3-oxa-9-aza-tricyclo[3.3.1.0*2,4*]non-7-yl ester] the Ki was 0.14 nM.
